Here are results for one substance from patent USH1427H, “Substituted flavonoid compounds, their salts, their manufacture and their use in combination with interleukin-2” (priority 1992, dated 1995).

One series has as its system tumor. Particulars: cited from earlier work; for anti-tumor activity of rIL-2 in mice/rodents: used alone, near toxic dosages.
Series [1] concerns Renca renal adenocarcinoma. Put plainly: Survival of Renca-bearing mice treated with flavonoid and/or rIL-2. It counts as in vivo, BALB/C mice. The note with it: single agent, FIGS. 2a, 2b, 3a and 3b. The source says: Tumor model. The model used for these studies is the Renca renal adenocarcinoma, a tumor that originated spontaneously and is maintained by serial transplant in BALB/C mice (JNCI, vol. 50, 1013 (1973)). The growth characteristics of this tumor have been previously described in detail (J. Immunol., vol. 138, 641 (1987)). After injection of 1×10^5 tumor cells under the renal capsule, the solid tumor mass develops rapidly with direct extension to the peritoneal cavity by days 7 to 9 and metastasis to regional lymph nodes and the liver shortly thereafter. Surgical resection of the primary tumor-bearing kidney is potentially curative before day 8 but not thereafter when mice succumb to peritoneal carcinomatosis and subsequent metastatic disease. Flavonoid was administered by injection of 125 mg/kg i.v. and 125 mg/kg i.p., whereas various doses of rIL-2 were delivered by the i.p. route. Routinely, flavonoid was administered 2 to 4 h after nephrectomy of the primary tumor-bearing kidney on day 11, and rIL-2 was administered once per day for 4 successive days beginning on the day after nephrectomy and FAA treatment. […]
FIGS. 2a, 2b, 3a and 3b illustrate the effect of treatment with various flavonoids and/or rIL-2 on the survival of Renca-bearing mice. […] Mice were then monitored for survival and statistical analyses performed by the .chi.^2 test.

The test system of a further series is cancer. The note with it: certain human cancer patients, b80: near toxic dosages, cited from earlier work.
The conditions of series [2]: large amounts of rIL-2, humans; Moertel; cited from earlier work.

“Also recorded” adds a separate entry of the source. Where two headings read alike, the source gives them in different places.

Take “rIL-2: recombinant interleukin-2, most preferably recombinant human interleukin-2”: the “anti-tumor activity of rIL-2 in mice/rodents” value is “notable anti-tumor activity; also recorded: some anti-tumor effects” in the series with tumor and “induce antitumor effects” with tumor (listed as IL-2). The “therapeutic efficacy of rIL-2 in conjunction with adoptive immunotherapy” value in the series on tumor (with adoptive immunotherapy, Mule et al., Rosenberg et al., Salup et al.) is reported as “enhanced”. Also, the “long-term survival, independent use of flavonoid or interleukin-2” value in series [1] was “unable to induce such long-term survival”. Besides, the “anti-tumor activity of rIL-2 in humans” value with cancer is reported as “notable anti-tumor activity; also recorded: some anti-tumor effects”; in the series with cancer (listed as IL-2), “induce antitumor effects”. Also, the toxic side effects entry in series [2] is “severe and dose-limiting toxic side effects”.
